Data set [1] deals with primary human peripheral blood mononuclear cells. In words: Cytotoxicity on PBMCs. Conditions: PBMC.
Data set [2] is described as follows: Hydrolytic stability of DMSO stock solution under freezing–. As to conditions: hygroscopic DMSO stock solution.

For orientation: CC50 means the concentration that lowers cell viability or growth by half. Regarding “[1,4-Bis(4-hydroxyphenyl)butane-1,4-dione – 1,4-bis(4-methoxyphenyl)butane-1,4-dione (7) – (2S,2′S)-2,2′-{[(tricyclo[3.3.1.1^3,7]dec-1-ylamino)methanediyl] bis(pteroylimino)}dipentanedioic acid (0.2:1:1)]×3 H2O×0.4 acetone [Compound 9]”, the CC50 in data set [1] (experiment 1) and in data set [1] (experiment 2) was 44.9 µM throughout. Further, in data set [2], the “hydrolytic stability (in words)” value was “hydrolytic instability”.

The values are drawn from article PMC7734623 (Antiviral chemistry & chemotherapy, 2012).
